Experimental data taken from patent US5714467A, “Antibacterial and antimalarial hybrid peptides” (The Rockefeller University, priority 1993, dated 1998).

Tested on: Sheep Red Cells
Assay: lysis of sheep red blood cells (lysis assay or SRC plate assay)
Format: cell-based
Conditions: running text
Procedure: These values were obtained by either the lysis assay normally used for melittin or by an adaptation of the antibacterial inhibition zone assay of the above-cited Hultmark et al articles to plates with sheep red cells (SRC). With respect to the latter, sterile agarose plates contained 6 ml of medium With 1% agarose, 0.9% NaCl and 10% SRC suspended in Alsevers solution. A dilution series of peptide was applied in 3 mm wells each loaded with 3 μl of the respective samples. The plates were incubated at 30° C. for 24 h, the zones were recorded and LC values calculated as described in the Hultmark et al articles. Clear zones were recorded after a few hours of incubation and the use of such data gave an LC value of the same order as readings after 24 h. This plate assay is faster and more convenient than the lysis assay normally used for melittin.

CC[C@H](C)[C@H](NC(=O)CN)C(=O)NCC(=O)N[C@@H](C)C(=O)N[C@H](C(=O)N[C@@H](CC(C)C)C(=O)N[C@@H](CCCCN)C(=O)N[C@H](C(=O)N[C@@H](CC(C)C)C(=O)N[C@H](C(=O)N[C@H](C(=O)NCC(=O)N[C@@H](CC(C)C)C(=O)N1CCC[C@H]1C(=O)N[C@@H](C)C(=O)N[C@@H](CC(C)C)C(=O)N[C@H](C(=O)N[C@@H](CO)C(=O)N[C@@H](Cc1c[nH]c2ccccc12)C(=O)N[C@H](C(=O)N[C@@H](CCCCN)C(=O)N[C@@H](CCCNC(=N)N)C(=O)N[C@@H](CCCCN)C(=O)N[C@@H](CCCNC(=N)N)C(=O)N[C@@H](CCC(N)=O)C(=O)N[C@@H](CCC(N)=O)C(N)=O)[C@@H](C)CC)[C@@H](C)CC)[C@@H](C)O)[C@@H](C)O)C(C)C)C(C)C [M(1-26), Melittin]
concentration lytic to sheep red blood cells: 4 to 6 µM
